Laboratory results from patent EP0448343A2, “Lipopeptide derivatives” (MERCK & CO. INC., priority 1990, dated 1991).

Assay: Solubility in water
Format: physicochemical

1-[4-hydroxy-N2-(10,12-dimethyl-1-oxotetradecyl)-ornithine]-4-[3-hydroxy-4′-O-(2-carbamoyl acetic acid-homo-tyrosine]-5-[3-hydroxyglutamine]-6-[3-hydroxyproline]echinocandin B [IV]
solubility in water: > 10 mg/mL
